Experimental data reported in US20220137028A1, “In Vitro Assays as Indicator of Local Tolerance” (Lonza Ltd, priority 2019, published 2022).

System: human heparinized whole blood (erythrocytes)
Test: In vitro hemolysis test with co-solvents (study procedure, Drabkin's solution, absorbance 540 nm)
Conditions: co-solvent diluted with NaCl 0.9%; intersection of fitted sigmoidal curve with 5% hemolysis line; 10 min at 37° C.

Row | Substance | max. well tolerated co-solvent concent
1 | Polyethylene glycol 300 [PEG 300] | 62%
2 | Polyethylene glycol 400 [PEG 400] | 42%
